For 3 compounds, Activity results are on record in ChEMBL document CHEMBL4325836, “Novel tacrine-pyridinium hybrid reactivators of organophosphorus-inhibited acetylcholinesterase: Synthesis, molecular docking, and in vitro reactivation study” (2018).

The chains behind the UniProt entries cited, without tags or fusion partners. Where a name states a change or a piece, a line headed by the entry shows the natural chain unless it says otherwise.
UniProt O42275: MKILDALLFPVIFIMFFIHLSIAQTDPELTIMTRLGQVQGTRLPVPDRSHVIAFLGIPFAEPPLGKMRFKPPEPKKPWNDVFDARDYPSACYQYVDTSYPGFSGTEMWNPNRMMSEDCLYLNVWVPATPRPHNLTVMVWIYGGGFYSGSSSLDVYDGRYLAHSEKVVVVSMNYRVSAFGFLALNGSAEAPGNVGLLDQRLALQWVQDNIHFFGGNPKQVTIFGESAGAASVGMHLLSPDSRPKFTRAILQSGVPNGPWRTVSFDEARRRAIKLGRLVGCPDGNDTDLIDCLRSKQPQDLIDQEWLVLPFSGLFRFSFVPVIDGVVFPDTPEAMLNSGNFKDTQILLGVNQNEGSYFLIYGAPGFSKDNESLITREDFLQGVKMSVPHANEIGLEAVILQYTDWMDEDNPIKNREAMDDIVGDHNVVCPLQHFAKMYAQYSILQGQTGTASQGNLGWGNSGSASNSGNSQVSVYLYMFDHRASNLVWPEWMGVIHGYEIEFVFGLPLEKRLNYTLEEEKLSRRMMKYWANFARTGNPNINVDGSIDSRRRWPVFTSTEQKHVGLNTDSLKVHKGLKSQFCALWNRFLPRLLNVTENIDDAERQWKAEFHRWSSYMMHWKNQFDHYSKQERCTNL

The experiment addresses Acetylcholinesterase (Electrophorus electricus) (UniProt O42275). Kind of experiment: Reactivation of paraoxon-inhibited electric eel AChE assessed as residual activity at 1 uM using acetylthiocholine iodide as substrate preincubated for 30 mins followed by substrate addition and measured every 3 mins for 15 mins relative to control.
Turning to `O/N=C/c1cc[n+](CCCCCNc2c3c(nc4ccccc24)CCCC3)cc1`, the Activity amounted to 41%.

Consider `NC(=O)c1cc[n+](COC[n+]2ccccc2/C=N/O)cc1`, for which the Activity was found to be 4%.

In the case of `O/N=C/c1cc[n+](CCCCNc2c3c(nc4ccccc24)CCCC3)cc1`, the Activity was determined as 41%.
